Experimental data from publication PMC4183595, “Study on the Main Components Interaction from Flos Lonicerae and Fructus Forsythiae and Their Dissolution In Vitro and Intestinal Absorption in Rats” (PLoS ONE, 2014).

Tests used:
P-gp, MRP2 and BCRP = tested on: P-gp, MRP2 and BCRP; set-up: method as in PMID 24035225, PMID 25442264; settings: previous study; ref [21]–[22]; cited from earlier work
[1] = Rat in vivo pharmacokinetics study after oral administration of product A, B or C; set-up: species or system Male Sprague-Dawley (SD) rats; AUC 0→t in product C group, increased to % compared to that in product A or B groups: concentration or dose not given beside the values; settings: rats; for AUC 0→∞ / MRT / T 1/2z / T max: 10 mL·kg^−1; for AUC 0→t: oral product C group; for AUC 0→t in product C group, increased to % compared to that in product A or B groups: oral, product C versus product A or B; for C max: mean±SD
Protocol: Product A (extract mixed with FLJ extract and water, (1∶1, v / v )), product B (extract mixed with FF extract and water, (1∶1, v / v )) and product C (extract mixed with FLJ and FF extracts, (1∶1, v / v )) were given to oral administration to rats, respectively.
Male SD rats (∼250 g) were kept in an environmentally controlled breeding room (temperature: 20±2°C, relative humidity: 60±5%) for 1 week. […] The rats were randomly divided into three groups with no less than six rats in each group to receive various administrations at a single oral dose (10 mL·kg^−1) by gastric gavage. […] Subsequently, plasma was prepared by centrifugation at 1,816×g, 4°C for 7 min, and immediately analyzed or stored at −70°C for further analysis.
The main pharmacokinetic parameters including the peak plasma concentration (C max), the time to C max (T max), the AUC from 0 to infinity (AUC 0–∞), the AUC form 0 to time (AUC 0–t), mean residence time (MRT), and terminal elimination half-life (T 1/2z) were calculated by the non-compartmental analysis of plasma concentration vs. time data using the “DAS 2.1.1” software (Mathematical Pharmacology Professional Committee of China, Shanghai, China).

Caco-2 cells = assay: In vitro Caco-2 monolayer model, apical to basolateral transport (P app); format: in vitro ADME, human
Protocol: Caco-2 cells were cultured in high glucose DMEM with 10% fetal bovine serum, 1% nonessential amino acids. Cells were cultured in a humidified atmosphere of 5% CO2 at 37°C. After reaching 80% confluens, Caco-2 cells were harvested with 0.05% trypsin-EDTA solution and seeded on top of CC inserts in 6-well plates, which has a surface area of 4.2 cm^2, at a density of 1.0×10^5 cells/cm^2. The protocols for cell culture in Transwell inserts were similar to those described previously.
Hank’s balanced salt solution (HBSS) was used as the transport buffer for the transport study in Caco-2 cells monolayer model. It was prepared by dissolving 9.5 grams of commercial available HBSS powder in 1000 mL water.
Cell culture experiments were described previously. Briefly, after culture medium was aspirated, the cell monolayers were washed three times with blank HBSS. […] The monolayers were incubated with the blank HBSS for 1 h with 37°C. Thereafter the incubation medium was aspirated. Afterwards, a solution containing the compound was loaded onto the apical side. The amounts of transported compound were measured as a function of time. […] The samples were taken at 0, 1, 2, 3 and 4 h after incubation. At the end of the transport experiment, integrity of the monolayer was monitored by TEER value.

[2] = single oral dose 10 mL·kg^−1 of product B (FF extract and water 1:1)
[3] = single oral dose 10 mL·kg^−1 of product C (FLJ and FF extracts 1:1)

Row | Substance | efflux transporters influencing the intestinal absorption (P-gp, MRP2 and BCRP) | AUC 0→∞ ([1]; oral product B) | MRT ([1]; oral product B) | T 1/2z ([1]; oral product B) | T max ([1]; oral product B) | AUC 0→t [1] | AUC 0→∞ ([1]; oral product C) | MRT ([1]; oral product C) | T 1/2z ([1]; oral product C) | T max ([1]; oral product C) | AUC 0→t in product C group, increased to % compared to that in product A or B groups [1] | C max [1, 2] | C max [1, 3] | P app in product C group, % compared with that in product B group (Caco-2 cells; HBSS pH 6.0, apical to basolateral) | P app, product C group versus product B group (Caco-2 cells)
1 | Forsythoside B | affected by P-gp and MRP2, not BCRP | 3249.3 ± 268.96 ng·min/mL | 3.3 ± 0.445 h | 4.32 ± 0.607 h | 0.167 ± 0 h | 5642.5±122.33 ng⋅min/mL | 5223.2 ± 666.32 ng·min/mL | 6.33 ± 0.722 h | 7.08 ± 0.845 h | 0.167 ± 0 h | 175% | 25.5 ± 9.37 ng/mL | 46.6 ± 4.91 ng/mL | 210% | 
2 | Phillyrin |  | 389.31 ± 94.693 ng·min/mL | 5.27 ± 0.197 h | 5.68 ± 0.32 h | 0.167 ± 0 h | 3374.0±265.32 ng⋅min/mL | 1316.5 ± 171.15 ng·min/mL | 8.68 ± 0.922 h | 7.5 ± 0.873 h | 0.167 ± 0 h | 213% | 2.24 ± 0.978 ng/mL | 4.41 ± 0.0769 ng/mL |  | no significant difference
